Structures can show the parent of a compound that is named as a salt.

Sequences of proteins named here, by UniProt entry; tags and fusion partners are left off.
UniProt P20309, whole entry: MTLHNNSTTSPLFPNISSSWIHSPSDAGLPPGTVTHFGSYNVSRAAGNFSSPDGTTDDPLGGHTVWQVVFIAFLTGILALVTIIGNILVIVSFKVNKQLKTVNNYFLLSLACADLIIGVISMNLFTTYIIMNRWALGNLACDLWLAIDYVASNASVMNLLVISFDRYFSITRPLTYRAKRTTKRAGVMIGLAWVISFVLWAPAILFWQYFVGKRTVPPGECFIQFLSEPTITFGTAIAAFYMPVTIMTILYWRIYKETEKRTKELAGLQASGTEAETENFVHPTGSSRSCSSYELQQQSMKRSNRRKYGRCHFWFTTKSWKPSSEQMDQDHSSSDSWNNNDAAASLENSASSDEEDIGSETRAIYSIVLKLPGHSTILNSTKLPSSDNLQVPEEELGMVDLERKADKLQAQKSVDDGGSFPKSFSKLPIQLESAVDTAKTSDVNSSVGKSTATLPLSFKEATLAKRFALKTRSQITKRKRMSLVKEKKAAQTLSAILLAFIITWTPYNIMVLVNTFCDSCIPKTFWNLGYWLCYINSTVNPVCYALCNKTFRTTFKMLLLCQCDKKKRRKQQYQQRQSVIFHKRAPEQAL

One experiment concerns the target T1, human M3 receptor (Homo sapiens, UniProt P20309).
Test: not given
Turning to `O=C(Nc1ccc(F)cc1-c1cccs1)O[C@H]1C[N@]2CC[C@H]1CC2` [EXP 18, (1S,3R,4S)-Quinuclidin-3-yl (4-fluoro-2-(thiophen-2-yl)phenyl)carbamate], the “M3-receptor-selectivity (M3 over M2)” value was 39 fold.

With `C[N@+]12CC[C@H](CC1)[C@@H](OC(=O)Nc1ccc(F)cc1-c1cccs1)C2` [EXP 19, (1S,3R,4S)-3-(((4-Fluoro-2-(thiophen-2-yl)phenyl)carbamoyl)oxy)-1-methylquinuclidin-1-ium formate], the “M3-receptor-selectivity (M3 over M2)” value came out at 27 fold.

For `C[N+]1(C)[C@@H]2C[C@H](OC(=O)Nc3ccc(F)cc3-c3cccs3)C[C@H]1[C@H]1O[C@H]12` [EXP 36, (1R,2R,4S,5S,7S)-7-(((4-Fluoro-2-(thiophen-2-yl)phenyl)carbamoyl)oxy)-9,9-dimethyl-3-oxa-9-azatricyclo[3.3.1.0^2,4]nonan-9-ium formate], the “better M3-receptor-selectivity compared to defluoro analogue REF 1” value came out at 5 fold. Take `O=C(Nc1ccccc1-c1cccs1)O[C@H]1C[N@]2CC[C@H]1CC2` [REF 2, (1S,3R,4S)-Quinuclidin-3-yl(2-(thiophen-2-yl)phenyl)carbamate, reference compound]: the “M3-receptor-selectivity (M3 over M2)” value was found to be 7 fold.

As for `C[N@+]12CC[C@H](CC1)[C@@H](OC(=O)Nc1ccccc1-c1cccs1)C2.[I-]` [REF 3, (1S,3R,4S)-1-Methyl-3-(((2-(thiophen-2-yl)phenyl)carbamoyl)oxy)quinuclidin-1-ium iodide, reference compound], the “M3-receptor-selectivity (M3 over M2)” value worked out at 6 fold.

Another experiment addresses T1, human M3 receptor. The experiment is described as follows: biochemical.
Usually Ki stands for the dissociation constant of the complex between target and ligand, obtained from inhibition or displacement. Higher therefore signals weaker binding. For `O=C(Nc1cc(F)c(F)cc1-c1ccccc1)O[C@H]1C[N@]2CC[C@H]1CC2` [EXP 15, (1S,3R,4S)-Quinuclidin-3-yl(4,5-difluoro-[2-phenyl]-phen-1-yl)carbamate], the Ki is under 1 nM.

In turn, `O=C(Nc1cc(F)c(F)c(F)c1-c1ccccc1)O[C@H]1C[N@]2CC[C@H]1CC2` [EXP 16, (1S,3R,4S)-Quinuclidin-3-yl(3,4,5-trifluoro-[2-phenyl]-phen-1-yl)carbamate] registered an inhibition constant (Ki) of 1 to 20 nM. `O=C(Nc1ccc(F)cc1-c1cccs1)O[C@H]1C[N@]2CC[C@H]1CC2` [EXP 18, (1S,3R,4S)-Quinuclidin-3-yl (4-fluoro-2-(thiophen-2-yl)phenyl)carbamate] came in with a Ki of under 1 nM.

The compound `C[N@+]12CC[C@H](CC1)[C@@H](OC(=O)Nc1ccc(F)cc1-c1cccs1)C2` [EXP 19, (1S,3R,4S)-3-(((4-Fluoro-2-(thiophen-2-yl)phenyl)carbamoyl)oxy)-1-methylquinuclidin-1-ium formate] showed a Ki of under 1 nM.

For the compound `O=C(Nc1ccc(F)cc1-c1sccc1Br)O[C@H]1C[N@]2CC[C@H]1CC2` [EXP 20, (1S,3R,4S)-Quinuclidin-3-yl (2-(3-bromothiophen-2-yl)-4-fluorophenyl)carbamate], the inhibition constant (Ki) is 1 to 20 nM. Consider `Cc1ccsc1-c1cc(F)ccc1NC(=O)O[C@H]1C[N@]2CC[C@H]1CC2` [EXP 21, (1S,3R,4S)-Quinuclidin-3-yl(4-fluoro-2-(3-methylthiophen-2-yl)phenyl)carbamate], for which the Ki lay in the range of 1 to 20 nM. Still for that read-out and setting: under `Cc1csc(-c2cc(F)ccc2NC(=O)O[C@H]2C[N@]3CC[C@H]2CC3)c1` [EXP 22, (1S,3R,4S)-Quinuclidin-3-yl(4-fluoro-2-(4-methylthiophen-2-yl)phenyl)carbamate] stands under 1 nM; under `Cc1ccc(-c2cc(F)ccc2NC(=O)O[C@H]2C[N@]3CC[C@H]2CC3)s1` [EXP 23, (1S,3R,4S)-Quinuclidin-3-yl(4-fluoro-2-(5-methylthiophen-2-yl)phenyl)carbamate], under 1 nM. For `O=C(Nc1ccc(F)cc1-c1ccsc1)O[C@H]1C[N@]2CC[C@H]1CC2` [EXP 24, (1S,3R,4S)-Quinuclidin-3-yl (4-fluoro-2-(thiophen-3-yl)phenyl)carbamate], the inhibition constant (Ki) was under 1 nM. The same measure, in the same setting: with `C[N@+]12CC[C@H](CC1)[C@@H](OC(=O)Nc1ccc(F)cc1-c1ccsc1)C2` [EXP 25, (1S,3R,4S)-3-(((4-Fluoro-2-(thiophen-3-yl)phenyl)carbamoyl)oxy)-1-methylquinuclidin-1-ium formate] the figure was under 1 nM; with `Cc1cc(-c2cc(F)ccc2NC(=O)O[C@H]2C[N@]3CC[C@H]2CC3)cs1` [EXP 26, (1S,3R,4S)-Quinuclidin-3-yl(4-fluoro-2-(5-methylthiophen-3-yl)phenyl)carbamate], under 1 nM; with `O=C(Nc1ccc(F)cc1-c1occc1Br)O[C@H]1C[N@]2CC[C@H]1CC2` [EXP 27, (1S,3R,4S)-Quinuclidin-3-yl (2-(3-bromofuran-2-yl)-4-fluorophenyl)carbamate], 1 to 20 nM. With `Cc1ccc(-c2cc(F)ccc2NC(=O)O[C@H]2C[N@]3CC[C@H]2CC3)o1` [EXP 28, (1S,3R,4S)-quinuclidin-3-yl(4-fluoro-2-(5-methylfuran-2-yl)phenyl)carbamate], the Ki was 1 to 20 nM. In the case of `O=C(Nc1ccc(F)cc1-c1ccoc1)O[C@H]1C[N@]2CC[C@H]1CC2` [EXP 29, (1S,3R,4S)-Quinuclidin-3-yl(4-fluoro-2-(furan-3-yl)phenyl)carbamate], the Ki lay within 1 to 20 nM. `O=C(Nc1ccc(F)cc1-c1cncs1)O[C@H]1C[N@]2CC[C@H]1CC2` [EXP 30, (1S,3R,4S)-Quinuclidin-3-yl (4-fluoro-2-(thiazol-5-yl)phenyl)carbamate] gave a Ki of 20 to 200 nM. Take `O=C(Nc1ccc(F)cc1-c1ccncc1)O[C@H]1C[N@]2CC[C@H]1CC2` [EXP 31, (1S,3R,4S)-Quinuclidin-3-yl(4-fluoro-2-(pyridin-4-yl)phenyl)carbamate]: the Ki lay in the range of 1 to 20 nM. The compound `O=C(Nc1ccc(F)cc1-c1cncnc1)O[C@H]1C[N@]2CC[C@H]1CC2` [EXP 32, (1S,3R,4S)-Quinuclidin-3-yl(4-fluoro-2-(pyrimidin-5-yl)phenyl)carbamate] came in with a Ki of 1 to 20 nM. With `CN1[C@@H]2CC[C@H]1C[C@H](OC(=O)Nc1ccc(F)cc1-c1cccs1)C2` [EXP 33], the Ki is under 1 nM. Same read-out and setting: under `CN1[C@@H]2C[C@H](OC(=O)Nc3ccc(F)cc3-c3cccs3)C[C@H]1[C@H]1O[C@H]12` [EXP 35] stands under 1 nM.

On to `C[N+]1(C)[C@@H]2C[C@H](OC(=O)Nc3ccc(F)cc3-c3cccs3)C[C@H]1[C@H]1O[C@H]12` [EXP 36, (1R,2R,4S,5S,7S)-7-(((4-Fluoro-2-(thiophen-2-yl)phenyl)carbamoyl)oxy)-9,9-dimethyl-3-oxa-9-azatricyclo[3.3.1.0^2,4]nonan-9-ium formate], for which the Ki was under 1 nM.

Regarding `O=C(Nc1ccc(F)cc1-c1cc2ccccc2s1)O[C@H]1C[N@]2CC[C@H]1CC2` [EXP 37, (1S,3R,4S)-Quinuclidin-3-yl(2-(benzo[b]thiophen-2-yl)-4-fluorophenyl)carbamate], the Ki is 1 to 20 nM.

`O=C(Nc1ccc(F)cc1-c1csc2ccccc12)OC1CN2CCC1CC2` [EXP 38, (1S,3R,4S)-Quinuclidin-3-yl(2-(benzo[b]thiophen-3-yl)-4-fluorophenyl)carbamate] had a Ki of 20 to 200 nM. On the same count and under the same terms, under `O=C(Nc1ccc(F)cc1C1=CCc2ccccc21)O[C@H]1C[N@]2CC[C@H]1CC2` [EXP 40, (1S,3R,4S)-Quinuclidin-3-yl(4-fluoro-2-(1H-inden-3-yl)phenyl)carbamate] stands 20 to 200 nM; under `O=C(Nc1ccc(F)cc1C#Cc1ccccc1)O[C@H]1C[N@]2CC[C@H]1CC2` [EXP 41, (1S,3R,4S)-Quinuclidin-3-yl (4-fluoro-2-(phenylethynyl)phenyl)carbamate], 20 to 200 nM. On the same count and under the same terms, with `O=C(Nc1ccc(F)cc1C#CC1CCCCC1)O[C@H]1C[N@]2CC[C@H]1CC2` [EXP 42, (1S,3R,4S)-Quinuclidin-3-yl (2-(cyclohexylethynyl)-4-fluorophenyl)carbamate] the figure was 20 to 200 nM; with `Cc1ccc(-c2cc(F)ccc2NC(=O)O[C@H]2C[C@@H]3[C@@H]4O[C@@H]4[C@H](C2)[N+]3(C)C)s1` [EXP 43, (1R,2R,4S,5S,7S)-7-(((4-Fluoro-2-(5-methylthiophen-2-yl)phenyl)carbamoyl)oxy)-9,9-dimethyl-3-oxa-9-azatricyclo[3.3.1.0^2,4]nonan-9-ium formate], under 1 nM.

`Cc1csc(-c2cc(F)ccc2NC(=O)O[C@H]2C[C@@H]3[C@@H]4O[C@@H]4[C@H](C2)[N+]3(C)C)c1` [EXP 44, (1R,2R,4S,5S,7S)-7-(((4-Fluoro-2-(4-methylthiophen-2-yl)phenyl)carbamoyl)oxy)-9,9-dimethyl-3-oxa-9-azatricyclo[3.3.1.0^2,4]nonan-9-ium formate] registered a Ki of under 1 nM. As for `Cc1ccsc1-c1cc(F)ccc1NC(=O)O[C@H]1C[C@@H]2[C@@H]3O[C@@H]3[C@H](C1)[N+]2(C)C` [EXP 45, (1R,2R,4S,5S,7S)-7-(((4-Fluoro-2-(3-methylthiophen-2-yl)phenyl)carbamoyl)oxy)-9,9-dimethyl-3-oxa-9-azatricyclo[3.3.1.0^2,4]nonan-9-ium formate], the inhibition constant (Ki) was 1 to 20 nM. In turn, `C[N+]1(C)[C@@H]2C[C@H](OC(=O)Nc3ccc(F)cc3-c3ccsc3)C[C@H]1[C@H]1O[C@H]12` [EXP 46, (1R,2R,4S,5S,7S)-7-(((4-Fluoro-2-(thiophen-3-yl)phenyl)carbamoyl)oxy)-9,9-dimethyl-3-oxa-9-azatricyclo[3.3.1.0^2,4]nonan-9-ium formate] yielded a Ki of under 1 nM.

`C[N+]1(C)[C@@H]2C[C@H](OC(=O)Nc3ccc(F)cc3-c3cc4ccccc4s3)C[C@H]1[C@H]1O[C@H]12` [EXP 47, (1R,2R,4S,5S,7S)-7-(((2-(Benzo[b]thiophen-2-yl)-4-fluorophenyl)carbamoyl)oxy)-9,9-dimethyl-3-oxa-9-azatricyclo[13.3.1.0^2,4]nonan-9-ium formate]: the Ki was under 1 nM. Still for that read-out and setting: under `C[N+]1(C)[C@@H]2C[C@@H](OC(=O)Nc3ccc(F)cc3-c3csc4ccccc34)C[C@H]1[C@@H]1O[C@@H]12` [EXP 48, (1R,2R,4S,5S,7S)-7-(((2-(Benzo[b]thiophen-3-yl)-4-fluorophenyl)carbamoyl)oxy)-9,9-dimethyl-3-oxa-9-azatricyclo[3.3.1.0^2,4]nonan-9-ium formate] stands 20 to 200 nM; under `C[N+]1(C)[C@@H]2C[C@@H](OC(=O)Nc3ccccc3-c3cccs3)C[C@H]1[C@@H]1O[C@@H]12` [REF 1, (1R,2R,4S,5S,7S)-9,9-Dimethyl-7-(((2-(thiophen-2-yl)phenyl)carbamoyl)oxy)-3-oxa-9-azatricyclo[3.3.1.0^2,4]nonan-9-ium formate, reference compound], under 1 nM; under `O=C(Nc1ccccc1-c1cccs1)O[C@H]1C[N@]2CC[C@H]1CC2` [REF 2, (1S,3R,4S)-Quinuclidin-3-yl(2-(thiophen-2-yl)phenyl)carbamate, reference compound], under 1 nM.

`C[N@+]12CC[C@H](CC1)[C@@H](OC(=O)Nc1ccccc1-c1cccs1)C2.[I-]` [REF 3, (1S,3R,4S)-1-Methyl-3-(((2-(thiophen-2-yl)phenyl)carbamoyl)oxy)quinuclidin-1-ium iodide, reference compound] displayed an inhibition constant Ki of under 1 nM.

The target in the next experiment is T1, human M3 receptor.
Test: not given
Format: binding. Further details: expressed in transfected cells; host or cells: HEK293T, transient transfection. The source holds these as a separate data set.
As to `C[N+]1(C)[C@@H]2C[C@H](OC(=O)Nc3ccc(F)cc3-c3cccs3)C[C@H]1[C@H]1O[C@H]12` [EXP 36, (1R,2R,4S,5S,7S)-7-(((4-Fluoro-2-(thiophen-2-yl)phenyl)carbamoyl)oxy)-9,9-dimethyl-3-oxa-9-azatricyclo[3.3.1.0^2,4]nonan-9-ium formate], the “selectivity for M3 over M2 by comparison of dissociation constants” value is on record as 170 fold.
